# Data taken from publication PMC11272584 (Nature Metabolism, 2024).
# Biological target: GIPR variants (groups)
# Details: remaining 24 LoF variants
substance,measurement,value
glucose-dependent insulinotropic polypeptide [GIP],Affinity (Kd) for GIP,high affinity (Kd) for GIP was retained
